By UniProt entry, the sequences of proteins in these tests, tags left out. Where a name states a change or a piece, a line headed by the entry shows the natural chain unless it says otherwise.
UniProt P04899: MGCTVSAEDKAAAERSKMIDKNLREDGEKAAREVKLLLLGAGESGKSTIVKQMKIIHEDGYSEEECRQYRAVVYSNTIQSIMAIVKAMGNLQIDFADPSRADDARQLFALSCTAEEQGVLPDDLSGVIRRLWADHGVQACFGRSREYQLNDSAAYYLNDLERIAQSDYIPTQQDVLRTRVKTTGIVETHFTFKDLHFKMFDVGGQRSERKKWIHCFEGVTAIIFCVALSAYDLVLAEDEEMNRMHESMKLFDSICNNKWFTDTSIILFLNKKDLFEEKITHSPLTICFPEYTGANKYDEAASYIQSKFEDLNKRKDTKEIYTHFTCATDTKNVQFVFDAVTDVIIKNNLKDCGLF
UniProt Q9NQS5: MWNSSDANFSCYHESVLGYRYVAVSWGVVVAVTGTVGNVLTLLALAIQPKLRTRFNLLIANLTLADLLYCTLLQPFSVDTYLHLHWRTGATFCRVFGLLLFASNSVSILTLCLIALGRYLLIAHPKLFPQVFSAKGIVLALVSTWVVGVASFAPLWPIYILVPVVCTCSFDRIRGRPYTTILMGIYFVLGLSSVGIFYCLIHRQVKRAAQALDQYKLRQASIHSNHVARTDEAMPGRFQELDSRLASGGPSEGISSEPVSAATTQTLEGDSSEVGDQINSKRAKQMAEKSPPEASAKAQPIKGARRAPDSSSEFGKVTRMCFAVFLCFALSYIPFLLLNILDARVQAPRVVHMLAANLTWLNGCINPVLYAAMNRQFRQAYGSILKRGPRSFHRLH

According to paper PMC9421653 (Journal of Medicinal Chemistry, 2022):

Each compound was assayed against T1, human GPR84 (Homo sapiens, UniProt P04899+Q9NQS5). Conditions: LLE = pIC50 – CLog P.
T1 construct: expressed in transfected cells; host or cells: Flp-In T-REx 293 cells, doxycycline-induced; membrane preparations
Assay type: biochemical
Work on `O=C(NCCO)c1ccc(-c2nnc(Cc3c[nH]c4cnccc34)nc2-c2ccccc2)cc1` [Compound 70, 4-(3-((1H-Pyrrolo[2,3-c]pyridin-3-yl)methyl)-5-phenyl-1,2,4-triazin-6-yl)-N-(2-hydroxyethyl)benzamide] yielded an LLE of 5.06.
Work on `CNC(=O)c1ccc(-c2nc(Cc3c[nH]c4ccncc34)nnc2-c2ccccc2)cc1` [Compound 71, 4-(3-((1H-Pyrrolo[3,2-c]pyridin-3-yl)methyl)-6-phenyl-1,2,4-triazin-5-yl)-N-methylbenzamide] yielded an LLE of 3.1.
For `CNC(=O)c1ccc(-c2nnc(Cc3c[nH]c4ccncc34)nc2-c2ccccc2)cc1` [Compound 72, 4-(3-((1H-Pyrrolo[3,2-c]pyridin-3-yl)methyl)-5-phenyl-1,2,4-triazin-6-yl)-N-methylbenzamide], the LLE was 3.81.
In the case of `CNC(=O)c1ccc(-c2nnc(Cc3c[nH]c4ccccc34)nc2-c2ccccc2)cc1` [Compound 73, 4-(3-((1H-Indol-3-yl)methyl)-5-phenyl-1,2,4-triazin-6-yl)-N-methylbenzamide], the LLE is reported as 3.69.
For `O=C(c1ccc(-c2nnc(Cc3c[nH]c4ccccc34)nc2-c2ccccc2)cc1)N1CCOCC1` [Compound 74, (4-(3-((1H-Indol-3-yl)methyl)-5-phenyl-1,2,4-triazin-6-yl)phenyl)(morpholino)methanone], the LLE was 3.91.
With `CN(C)CCNC(=O)c1ccc(-c2nnc(Cc3c[nH]c4ccccc34)nc2-c2ccccc2)cc1` [Compound 75, 4-(3-((1H-Indol-3-yl)methyl)-5-phenyl-1,2,4-triazin-6-yl)-N-(2-(dimethylamino)ethyl)benzamide] the LLE was 1.64.
Work on `O=C(NCCO)c1ccc(-c2nnc(Cc3c[nH]c4ccccc34)nc2-c2ccccc2)cc1` [Compound 76, 4-(3-((1H-Indol-3-yl)methyl)-5-phenyl-1,2,4-triazin-6-yl)-N-(2-hydroxyethyl)benzamide] yielded an LLE of 4.53.
`CN1CCN(C(=O)c2ccc(-c3nnc(Cc4c[nH]c5ccccc45)nc3-c3ccccc3)cc2)CC1` [Compound 77, (4-(3-((1H-Indol-3-yl)methyl)-5-phenyl-1,2,4-triazin-6-yl)phenyl)(4-methylpiperazin-1-yl)methanone] showed an LLE of 2.11.
Compound `CC(=O)NCCNC(=O)c1ccc(-c2nnc(Cc3c[nH]c4ccccc34)nc2-c2ccccc2)cc1` [Compound 79, 4-(3-((1H-Indol-3-yl)methyl)-5-phenyl-1,2,4-triazin-6-yl)-N-(2-acetamidoethyl)benzamide] has an LLE of 3.36.
`CN1CCN(C(=O)c2ccc(-c3nnc(Cc4c[nH]c5ccccc45)nc3-c3ccccc3)cc2)CC1=O` [Compound 80, 4-(4-(3-((1H-Indol-3-yl)methyl)-5-phenyl-1,2,4-triazin-6-yl)benzoyl)-1-methylpiperazin-2-one] was tested, and the LLE was 2.91.
`NC(=O)CNC(=O)c1ccc(-c2nnc(Cc3c[nH]c4ccccc34)nc2-c2ccccc2)cc1` [Compound 81, 4-(3-((1H-Indol-3-yl)methyl)-5-phenyl-1,2,4-triazin-6-yl)-N-(2-amino-2-oxoethyl)benzamide] gave an LLE of 3.43.

Same assay, conditions: LLE = pIC50 – Log D7.4
In the case of `O=C(NCCO)c1ccc(-c2nnc(Cc3c[nH]c4ccccc34)nc2-c2ccccc2)cc1` [Compound 76, 4-(3-((1H-Indol-3-yl)methyl)-5-phenyl-1,2,4-triazin-6-yl)-N-(2-hydroxyethyl)benzamide], the LLE is reported as 4.37.
